{
  "source": "PubChem BioAssay AID1259312",
  "about": "(Keith Lab, Institute of Cancer Science, University of …, 2017)",
  "note": "The entries are a selection whose mix differs from that of the whole data set. Activity calls are given as the source filed them.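 Rule for the calls: active = cell survival measured by absorbance rises more than 2.5-fold over infected cells without compound; inactive = the rest.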",
  "data": [
    {"assay": "survival after telomere uncapping, modulators, primary screen, cell-based (AID 1259312);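 note: virus expresses mutant telomerase RNA that uncaps telomeres and kills cells; compound added 2 days after infection so exposure lasts 3 days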", "conditions": "HCT116 + Ad-hTR-mut, MTT, 5 d, at 10 µM, active compounds read high", "values": [
      {"smiles": "Nc1nc(N)c([N+](=O)[O-])cc1[N+](=O)[O-]", "fold change": "inactive: 1.23"},
      {"smiles": "Cc1c(Cl)c([N+](=O)[O-])nn1[N+](=O)[O-]", "fold change": "inactive: -1.53"},
      {"smiles": "O=C1c2c([N+](=O)[O-])cc([N+](=O)[O-])c(O)c2C(=O)c2c(O)c([N+](=O)[O-])cc([N+](=O)[O-])c21", "fold change": "inactive: 2.09"},
      {"smiles": "Cc1nn([N+](=O)[O-])cc1[N+](=O)[O-]", "fold change": "inactive: -1.31"},
      {"smiles": "C=CC[C@H]1CC(C(O)(CC=C)CC=C)=C[C@@H](CC=C)N1.O=[N+]([O-])c1cc([N+](=O)[O-])c(O)c([N+](=O)[O-])c1", "fold change": "inactive: -1.15"},
      {"smiles": "O=C(O)C1(O)c2ccccc2-c2ccccc21", "fold change": "inactive: -1.65"}
    ]}
  ]
}
